Reference: ChEMBL document CHEMBL4020833, “A Systematic Exploration of Macrocyclization in Apelin-13: Impact on Binding, Signaling, Stability, and Cardiovascular Effects” (J Med Chem, 2018)

Target: T1, Apelin receptor (Homo sapiens, UniProt P35414)
T1 sequence (P35414 whole entry): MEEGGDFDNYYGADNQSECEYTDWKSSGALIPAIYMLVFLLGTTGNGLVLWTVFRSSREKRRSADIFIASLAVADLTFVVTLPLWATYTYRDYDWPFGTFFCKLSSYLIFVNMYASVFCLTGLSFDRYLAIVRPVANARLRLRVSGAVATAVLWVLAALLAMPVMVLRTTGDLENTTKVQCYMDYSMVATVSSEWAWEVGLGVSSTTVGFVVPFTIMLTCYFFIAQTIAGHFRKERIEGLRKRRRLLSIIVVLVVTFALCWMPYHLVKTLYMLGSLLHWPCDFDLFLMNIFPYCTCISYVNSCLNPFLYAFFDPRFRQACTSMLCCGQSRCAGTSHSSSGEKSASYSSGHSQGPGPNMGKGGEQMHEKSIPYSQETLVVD
Assay: Displacement of [125I]-[Nle75, Tyr77] Pyr1-apelin-13 from YFP-tagged human APJ receptor expressed in HEK293 cell membranes after 1 hr by gamma-counting method

Ki: 3 nM
Compound: CCCC[C@H](NC(=O)[C@@H]1CCCN1C(=O)CNC(=O)[C@H](CCCCN)NC(=O)[C@@H]1C/C=C\C[C@H](NC(=O)[C@H](CCCNC(=N)N)NC(=O)[C@@H]2CCC(=O)N2)C(=O)N[C@@H](CCCNC(=N)N)C(=O)N[C@@H](CC(C)C)C(=O)N[C@@H](CO)C(=O)N1)C(=O)N1CCC[C@H]1C(=O)N[C@@H](Cc1ccccc1)C(=O)O
